The numbers were not newly measured in article PMC13348789, which cites them from elsewhere.

The chains behind the UniProt entries cited, without tags or fusion partners. Residues count along the entry.
UniProt P01589, 22-240, chain 1 of 3: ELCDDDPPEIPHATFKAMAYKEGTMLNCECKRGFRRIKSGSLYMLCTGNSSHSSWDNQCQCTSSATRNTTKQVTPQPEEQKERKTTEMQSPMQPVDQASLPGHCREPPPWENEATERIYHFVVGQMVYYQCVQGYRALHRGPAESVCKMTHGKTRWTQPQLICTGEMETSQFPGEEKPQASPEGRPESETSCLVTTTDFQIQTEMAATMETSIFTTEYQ
UniProt P60568, 21-153: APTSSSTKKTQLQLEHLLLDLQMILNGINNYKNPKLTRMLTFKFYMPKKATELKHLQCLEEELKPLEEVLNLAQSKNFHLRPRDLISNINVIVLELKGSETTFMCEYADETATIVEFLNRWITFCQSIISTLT

A word on the Kd: it is a measure of binding affinity in units of concentration.

The target in this data set is IL-2Rα/IL-2Rβ/γc trimeric receptor (Homo sapiens) (UniProt P01589).

Consider IL-2 (from UniProt P60568), for which the dissociation constant Kd was 0.01 nM.
